# AlphaSeq binding of Ab-95 light chain variants to a spike HR2 peptide

Target peptide (SARS-CoV-2 spike, HR2 region): PDVDLGDISGINAS

Each scFv is VH, a 15-residue (Gly4Ser)3 linker, VL, as in the parent Ab-95, and differs from it in the CDRs of the light chain only.
VH: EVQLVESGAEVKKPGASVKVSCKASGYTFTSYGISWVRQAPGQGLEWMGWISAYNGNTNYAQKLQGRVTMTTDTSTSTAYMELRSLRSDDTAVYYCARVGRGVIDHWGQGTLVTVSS
VL: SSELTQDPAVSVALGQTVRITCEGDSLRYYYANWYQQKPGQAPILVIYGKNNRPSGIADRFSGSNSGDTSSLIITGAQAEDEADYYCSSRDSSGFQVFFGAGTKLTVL

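The parent was found by panning a naive human phage display library on the peptide. In library AAYL52, one, two or three CDR residues were substituted; doubles and triples were drawn at random. The assay is AlphaSeq: two haploid yeast populations carry antibody and antigen on their surface. Mating (16 h, 30 °C) was followed by selection of diploids and sequencing of their barcodes. The ratio of observed to expected reads was calibrated, replicate by replicate, on BCL2-family standards whose Kd was known from biolayer interferometry. Mating was done three times.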

Variants are written as CDR1, CDR2 and CDR3 of the light chain (limits as in the source). Parent: EGDSLRYYYAN, GKNNRPS, SSRDSSGFQVF. Scale: log10 of Kd in nM, estimated from mating counts; low values are strong binders. Where no diploid with the target was found in that replicate, the entry reads "ND": below detection, most likely a poor binder, though not proof of it. Nonspecific signal, from three strains lacking the peptide, appeared in 28% of pairings of library AAYL52, centred on 3.91 (5% of these signals below 2.90); values are not corrected for it. The control count says in how many pairings with the empty strains this scFv gave a signal, with their mean in brackets.

| CDR-L1 | CDR-L2 | CDR-L3 | log10 Kd, replicates | empty controls |
|---|---|---|---|---|
| EGDSLRDYYCN | GKNNRPS | SSRDSSGFQVF | 2.52 / 1.92 / 1.73 | 3 of 9 (4.35) |
| VGDSLRYYYAR | GKNNRPS | SSRDSSGFQVG | 3.80 / 3.37 / ND | 5 of 9 (3.66) |
| EGDSLRYYYSN | LKNNRNS | SSRDSSGFQVF | 4.02 / 5.81 / ND | 4 of 9 (3.88) |
| EGDSLRYYYAN | GRNNRPS | GSRDSSYFQVF | 3.02 / 2.84 / 3.13 | 1 of 9 (4.35) |
| EGDSHRYYYAN | GKNNRPK | SSRDSSEFQVF | ND / ND / ND | 1 of 9 (4.37) |
| EGDSLRPYYAN | GKNNLPS | SGRDSSGFQVF | 4.33 / 4.72 / ND | 2 of 9 (4.05) |
| EGDSLRYYYAN | GKNRRPS | NSRDQSGFQVF | 2.68 / 3.54 / 2.23 | 2 of 9 (4.20) |
| EGDSLPYSYAN | GKNNRPS | SSRDSSGFPVF | 3.17 / 2.68 / 2.66 | 2 of 9 (3.71) |
| AGDSLRYYNAN | GKCNRPS | SSRDSSGFQVF | 2.49 / 2.79 / 2.28 | 2 of 9 (4.74) |
| WGGSLRYYYAN | IKNNRPS | SSRDSSGFQVF | ND / ND / 4.50 | 2 of 9 (3.67) |
| EGTSLRYYYEN | GKNNRPS | SSRDSSYFQVF | 3.91 / ND / ND | 2 of 9 (4.45) |
| EGTSLRYYYAN | GKNNKPS | SSEDSSGFQVF | 3.69 / 3.74 / ND | 3 of 9 (4.06) |
| EGDHLRYDYAN | GKNNDPS | SSRDSSGFQVF | 4.66 / 3.22 / 3.84 | 3 of 9 (3.97) |
| ERDSLRYYYAN | GKNNQPS | SSYDSSGFQVF | ND / ND / 3.38 | 3 of 9 (4.07) |
| WGDSLRYYYAN | GKNNRPS | CCRDSSGFQVF | 3.17 / 3.60 / 4.28 | 3 of 9 (3.96) |
| EGDSLRYYYAN | GMNNRPS | SSQDSSGFQIF | 4.05 / ND / 3.65 | 4 of 9 (4.33) |
| EGDSLRYYYAN | GKNNRIS | SPRDSSGFLVF | 5.60 / ND / ND | 1 of 9 (3.44) |
| EGDSLRYYAAN | GKNNRPS | SPRHSSGFQVF | 1.91 / 1.86 / 1.39 | 3 of 9 (4.14) |
| ERDSLRYYVAN | GWNNRPS | SSRDSSGFQVF | ND / ND / ND | 1 of 9 (4.32) |
| EGDSLRYYYAN | GGNVVPS | SSRDSSGFQVF | 2.34 / 1.98 / 2.20 | 0 of 9 |
| EGDSLRYNYAN | GKNNRPS | SSRDSSGVQVF | 0.94 / 0.88 / 0.33 | 2 of 9 (4.48) |
| EGDSLRGYYAN | GDNNRPS | SSGDSSGFQVF | 1.12 / 1.24 / 0.28 | 2 of 9 (4.30) |
| EGDSLRYYYAN | GPNNRPS | SSRDSSGFQIP | 3.41 / 2.51 / 2.94 | 1 of 9 (3.74) |
| EGDKLRYYCAN | GKCNRPS | SSRDSSGFQVF | ND / 4.44 / ND | 2 of 9 (3.94) |
| EGDSLRYYYAN | GTNNRPS | SHRDSSGFNVF | ND / 3.98 / 3.46 | 1 of 9 (4.35) |
| EGDSLRYYYAH | GKNNNPS | SSRDSSGPQVF | ND / 3.75 / 4.08 | 4 of 9 (3.86) |
| EGDSHRYYYAN | GKNYRPN | SSRDSSGFQVF | 3.27 / 2.65 / 3.27 | 2 of 9 (4.55) |
| EGDSERYYYAN | GNNNRPS | SSRDSSGFQVF | 3.30 / 2.99 / 3.14 | 4 of 9 (3.80) |
| EGDSLTYYYMN | GKNNRPS | SSRDSSGFQVF | 4.43 / 5.01 / ND | 3 of 9 (3.78) |
| EGDSLRYYYAN | GKNNRGS | SSRDSEDFQVF | 2.56 / 2.22 / 1.59 | 4 of 9 (4.22) |
| EGDSIRYYYWN | GKNNQPS | SSRDSSGFQVF | 3.38 / ND / ND | 0 of 9 |
| VGDSLRYYYAN | GKNMRPS | SSRESSGFQVF | 2.77 / 2.70 / 2.74 | 4 of 9 (3.79) |
| EWDSGRYYYAN | CKNNRPS | SSRDSSGFQVF | ND / ND / ND | 4 of 9 (3.56) |
| EGDSLRYYYAN | FKNNRPS | SWRDSSGIQVF | ND / ND / ND | 2 of 9 (4.11) |
| EGDSLRYYYAN | GKNNRES | WSRDSSGFQVS | 2.92 / 2.80 / 2.57 | 1 of 9 (3.29) |
| EGGSLAYYYAN | GKNNRPS | SSRESSGFQVF | 3.06 / 3.21 / 2.08 | 5 of 9 (4.17) |
| EGDSLRYYYAN | GGNNRPS | SSRISSGFQVF | ND / ND / ND | 4 of 9 (3.77) |
| TGDSLRMYYAN | GKGNRPS | SSRDSSGFQVF | 2.36 / 2.51 / 1.94 | 5 of 9 (3.90) |

Repeated from above, the 2 best binders with a signal in all replicates:

| CDR-L1 | CDR-L2 | CDR-L3 | log10 Kd, replicates | empty controls |
|---|---|---|---|---|
| EGDSLRYNYAN | GKNNRPS | SSRDSSGVQVF | 0.94 / 0.88 / 0.33 | 2 of 9 (4.48) |
| EGDSLRGYYAN | GDNNRPS | SSGDSSGFQVF | 1.12 / 1.24 / 0.28 | 2 of 9 (4.30) |

Parent in this assay: reference entry 2.31, copy in this library 2.25.

Source: Engelhart et al. 2022 (doi:10.1038/s41597-022-01779-4), MIT Lincoln Laboratory and A-Alpha Bio; data file from the FLAb repository.